Earlier results on one compound are cited in patent US7572808B2, “Triazolopyridine cannabinoid receptor 1 antagonists” (Bristol-Myers Squibb Company, priority 2005, dated 2009).

The conditions of the data set: chronic administration for two weeks.

Turning to `Cc1c(C(=O)NN2CCCCC2)nn(-c2ccc(Cl)cc2Cl)c1-c1ccc(I)cc1` [AM-251], the adipose tissue mass result is recorded as “decreased adipose tissue mass”.
